# Laboratory results taken from patent US11331295B2, “High-dose statins for age-related macular degeneration” (MASSACHUSETTS EYE AND EAR INFIRMARY, priority 2015, dated 2022).
# System: ARPE-19 cells
# Assay: Fluorescence recovery after photobleaching (FRAP) to assess cell membrane fluidity
# Conditions: 50 μM atorvastatin, 3 hours; BODIPY FL C12
smiles,measurement,value
CC(C)c1c(C(=O)Nc2ccccc2)c(-c2ccccc2)c(-c2ccc(F)cc2)n1CC[C@@H](O)C[C@@H](O)CC(=O)O [atorvastatin],recovery of fluorescence in the membrane after photo-bleaching,increased
